Assays:
Carbonic anhydrase 1 = Carbonic anhydrase 1 (Homo sapiens, UniProt P00915); assay: Inhibitory activity against human carbonic anhydrase I expressed in Escherichia coli
Carbonic anhydrase 13 = Carbonic anhydrase 13 (Mus musculus, UniProt Q9D6N1)
Carbonic anhydrase 2 = Carbonic anhydrase 2 (Homo sapiens, UniProt P00918)

Amino acid sequences for entries named in this document (tags omitted). A change or cut given only in a name is not applied to a line headed by its entry. Residues count along the entry.
UniProt P00915, 2-261 limits assumed: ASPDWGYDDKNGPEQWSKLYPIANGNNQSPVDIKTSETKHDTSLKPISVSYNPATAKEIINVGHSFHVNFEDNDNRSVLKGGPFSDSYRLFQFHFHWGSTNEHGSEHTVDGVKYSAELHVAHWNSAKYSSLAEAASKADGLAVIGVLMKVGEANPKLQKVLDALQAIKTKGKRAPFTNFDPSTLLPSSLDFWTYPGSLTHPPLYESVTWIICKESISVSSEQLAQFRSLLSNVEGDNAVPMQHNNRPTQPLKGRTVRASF
UniProt Q9D6N1: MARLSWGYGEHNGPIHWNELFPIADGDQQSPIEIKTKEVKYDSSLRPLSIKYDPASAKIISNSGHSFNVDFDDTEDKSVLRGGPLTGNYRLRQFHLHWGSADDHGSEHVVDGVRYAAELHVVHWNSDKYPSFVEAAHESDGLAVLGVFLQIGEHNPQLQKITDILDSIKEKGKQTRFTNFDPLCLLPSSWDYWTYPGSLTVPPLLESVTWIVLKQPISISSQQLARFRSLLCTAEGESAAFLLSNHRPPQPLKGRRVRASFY

With O[As](O)Oc1ccccc1 the Ki (Carbonic anhydrase 1) was 31.7 mM, the Ki (Carbonic anhydrase 13) was 1.65 mM and the Ki (Carbonic anhydrase 2) was 49.2 mM.
